In this test the target is recombinant human PAPP-A (pregnancy-associated plasma protein-A, pappalysin-1) (human) (UniProt Q13219). The test can be described thus: kinetic analysis of inhibition of PAPP-A cleavage of 125I-IGFBP-4; Morrison Ki model.

Regarding “recombinant human stanniocalcin 1, C-terminally myc-his-tagged (from UniProt P52823 34-247)”, the Ki (as a rule, the dissociation constant of the complex between target and ligand, obtained from inhibition or displacement) stood at 0.068 nM.

These data come from patent publication US20200261490A1.
